# Columns and labels:
# Myeloperoxidase [1] = molecular target: T1, Myeloperoxidase (Homo sapiens, UniProt P05164); assay: Displacement of benzhydroxamic acid from native state MPO (unknown origin) by 1D NMR reporter assay
# T1 sequence (P05164 whole entry): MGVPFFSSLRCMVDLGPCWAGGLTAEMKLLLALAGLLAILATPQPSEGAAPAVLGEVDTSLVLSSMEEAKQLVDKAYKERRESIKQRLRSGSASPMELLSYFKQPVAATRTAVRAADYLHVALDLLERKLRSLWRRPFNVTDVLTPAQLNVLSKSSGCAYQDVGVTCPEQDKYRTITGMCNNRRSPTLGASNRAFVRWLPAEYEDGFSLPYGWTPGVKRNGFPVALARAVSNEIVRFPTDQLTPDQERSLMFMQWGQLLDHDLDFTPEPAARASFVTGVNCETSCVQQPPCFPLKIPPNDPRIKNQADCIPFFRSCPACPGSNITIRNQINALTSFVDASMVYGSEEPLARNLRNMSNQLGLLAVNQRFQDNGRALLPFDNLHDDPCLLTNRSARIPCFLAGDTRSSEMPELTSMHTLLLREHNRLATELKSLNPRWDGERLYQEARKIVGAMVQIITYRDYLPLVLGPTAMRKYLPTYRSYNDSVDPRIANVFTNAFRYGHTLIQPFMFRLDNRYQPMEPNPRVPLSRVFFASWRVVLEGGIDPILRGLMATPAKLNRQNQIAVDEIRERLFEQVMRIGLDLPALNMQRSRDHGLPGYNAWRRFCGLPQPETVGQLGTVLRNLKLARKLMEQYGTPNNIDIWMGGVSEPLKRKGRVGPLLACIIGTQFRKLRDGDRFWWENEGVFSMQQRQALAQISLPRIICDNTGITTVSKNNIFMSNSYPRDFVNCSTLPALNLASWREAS
# Myeloperoxidase [2] = molecular target: T1, Myeloperoxidase; assay: Inhibition of MPO in human HL-60 cells measured after 15 mins in presence of H2O2 by chemiluminescence assay; format: cell-based
Structure (SMILES),Kd (Myeloperoxidase [1]),IC50 (Myeloperoxidase [2])
NCc1cc(Cl)ccc1Cn1c(=S)[nH]c(=O)c2[nH]ccc21,3.98 µM,
COc1ccc(Cl)cc1-c1cc(=O)[nH]c(=S)n1CC(N)=O [PF-06282999],,35.5 µM
